From article PMC4031079 (PLoS Neglected Tropical Diseases, 2014) come the findings set out here.

The assay concerns the target T1, scabies mite inactive serine protease paralogue SMIPP-S D1 (Sarcoptes scabiei, UniProt A0A834RHI5 27-263).
T1 construct: source: Pichia pastoris, secreted, purified (phenyl-Sepharose, SP-Sepharose)
T1 sequence: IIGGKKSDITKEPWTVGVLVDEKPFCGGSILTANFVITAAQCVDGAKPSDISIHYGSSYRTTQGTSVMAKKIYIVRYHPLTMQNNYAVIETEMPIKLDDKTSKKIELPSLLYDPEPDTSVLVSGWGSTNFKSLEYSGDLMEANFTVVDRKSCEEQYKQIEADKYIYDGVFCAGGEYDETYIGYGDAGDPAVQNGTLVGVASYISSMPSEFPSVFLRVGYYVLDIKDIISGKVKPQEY
The experiment in a line: ELISA. To be noted: both partners purified. (In an ELISA, binding on a coated surface is turned into a signal by an enzyme label.)

B1: Human mannose binding lectin (MBL) (natural protein)
chain: ETVTCEDAQKTCPAVIACSSPGINGFPGKDGRDGTKGEKGEPGQGLRGLQGPPGKLGPPGNPGPSGSPGPKGQKGDPGKSPDGDSSLAASERKALQTEMARIKKWLTFSLGKQVGNKFFLTNGEIMTFEKVKALCVKFQASVATPRNAAENGAIQNLIKEEAFLGITDEKTEGQFVDLTGNRLTYTNWNEGEPNNAGSDEDCVLLLKNGQWNDVPCSTSHLAVCEFPI
notes: also called purified MBL; MBL in complex with MASPs; source: bought: Statens Serum Institute, Copenhagen, Denmark
Regarding B1, the binding result is recorded as “binds”.
